Values of other authors in patent publication US20210106574A1, “Methods of Treating Cancer” (Tesaro, Inc., priority 2017, published 2021).

How the values were obtained:
[1] = test system: cancer cell lines silenced for or carrying mutations of BRCA-1 or BRCA-2; Ewing's sarcoma, ALL, NSCLC, SCLC and ATM-inactivated tumor cell lines; conditions: selected Ewing's sarcoma, SCLC cell lines and tumor cell lines with homozygous inactivation of ATM; cited from earlier work
normal human cells = conditions: cited from earlier work

For `Cc1ccc(S(=O)(=O)O)cc1.NC(=O)c1cccc2cn(-c3ccc([C@@H]4CCCNC4)cc3)nc12` [Niraparib, (3S)-3-[4-{7-(aminocarbonyl)-2H-indazol-2-yl}phenyl]piperidine], the cytotoxicity [1] is listed as “selectively cytotoxic” and the “activity on normal human cells” value (normal human cells) is listed as “weak activity”.
